# Hits are enriched below; roughly 16% of the tested compounds scored in any of these assays.
# DT40 TDP1 no CPT: qHTS for Inhibitors of human tyrosyl-DNA phosphodiesterase 1 (TDP1): qHTS in cells in absence of CPT; DT40 Tdp1-/- hTDP1 cells, no CPT, ATP luminescence, 48 h; Potency, µM (doses to about 46.2 µM), without a hit: top-dose activity change, negative = growth inhibition, most hits filed as inhibitors; actives 15% (n = 420,000); note: potency is the fitted concentration of half-maximal effect; % is set by controls: 0 for no effect and ±100 for the full control effect; nearly all actives have a fitted effect of over 55% in size
#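 DT40 Tdp1-/-;hTDP1 cells, no CPT (DMSO vehicle only), 400 cells/well; compounds pin-transferred; ≥48 hr, 37 °C; CellTiter-Glo 30 min RT dark, luminescence read.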
# uPA generation: blocks generation of uPA at the cell surface; cell surface uPA generation assay, qHTS; Potency, µM (titrated, usually from 38.3 µM), for the others: top-dose activity change, negative = inhibition, usual class: inhibitors; actives 0.31% (n = 330,000); active = well fitted inhibition curve with a large enough effect; inconclusive = small, poorly fitted or top-dose-only effect; inactive = no such curve, though single readings can be large or run the other way; tested in mouse RAW 264.7 cells; note: potency is the fitted concentration of half-maximal effect; % is set by controls: 0 for no effect and ±100 for the full control effect; nearly all actives have a fitted effect of over 55% in size
# miR-21 reporter: miR-21 reporter, rising signal. HeLa miR-21 FLuc reporter, luciferase, 48 h. Potency, µM (titrated, usually from 38.3 µM), without a hit: at the top dose reporter change, positive = more light. 340,000 tested, under 10 active. AID 2288; active = well fitted rising curve with a large enough effect; inconclusive = small, poorly fitted or top-dose-only effect; inactive = no such curve, though single readings can be large or run the other way;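 also: % of control where 0% means no effect; miR-21 action dims this reporter so a rising signal means less miR-21 action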
#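 HeLa miR-21-FLuc reporter line, endogenous miR-21; 2000 cells/well in DMEM/10% FBS; compound titration up to ~40uM final, 48 h, 37 degree Celsius; luciferase detection reagent, 15 min lysis, CCD luminescence.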
# TDP1 cell CPT: DT40-hTDP1 cell growth loss with CPT | chicken DT40 Tdp1-/-;hTDP1 cells + 20 nM CPT, ATP luminescence, 48 h | Potency, µM (highest dose often 46.2 µM), for inactives: at the highest dose activity change, negative = growth inhibition, actives largely listed as inhibitors | actives 12% (n = 420,000); note: potency is the fitted concentration of half-maximal effect; % is set by controls: 0 for no effect and ±100 for the full control effect; nearly all actives have a fitted effect of over 55% in size
#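 Chicken DT40 Tdp1-/- cells stably complemented with human TDP1 were seeded at 400 cells/well in medium containing 20 nM camptothecin, exposed to pin-transferred compounds, and grown at 37 °C for at least 48 hr. Viability was read as ATP luminescence.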
# TDP1 block: inhibitors of human tyrosyl-DNA phosphodiesterase TDP1; AID 485290; Q9NUW8; actives 0.28% (n = 350,000); recombinant TDP1, AlphaScreen DNA substrate cleavage; Potency, µM (top dose mostly 130 µM), for inactives: at the top dose activity change, negative = inhibition, hits mostly inhibitors; note: potency is the fitted concentration of half-maximal effect; % is set by controls: 0 for no effect and ±100 for the full control effect; nearly all actives have a fitted effect of over 40% in size
#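 Enzyme-compound mixtures sat 15 min at room temperature, followed by a 5 min reaction with 15 nM final substrate and 10 min with AlphaScreen beads. Recombinant human Tdp1 was used at 1 nM final.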
# * hit, by the source's call; u = inconclusive; x = no result; [ ] = another dose, or the depositor's remark. Unless noted, calls come from the whole dose curve; as a rule, active = well fitted curve in the direction sought with a large enough effect; inconclusive = small, poorly fitted or top-dose-only effect, or another doubt; inactive = no such curve, though single readings can be large; an effect the other way counts as inactive or inconclusive.
structure	TDP1 block	uPA generation	TDP1 cell CPT	DT40 TDP1 no CPT	miR-21 reporter
COc1ccc(-c2nc(CS(=O)CC(=O)NCc3ccccc3OC)c(C)o2)cc1 (stereo not drawn)	6%	x	-11%	-22%	-1%
COc1ccc(Oc2ncc3nc(-c4ccc(Cl)cc4)c(=O)n(C4CC4)c3n2)cc1	x	x	8%	16%	x
COc1ccccc1NS(=O)(=O)c1cc(NC(=O)c2ccncc2)ccc1N1CCCC1	0%	3%	u	21µM*	3%
COc1ccc(NS(=O)(=O)c2cc(NC(=O)c3cccs3)ccc2N2CCCC2)cc1	11%	0%	u	21µM*	4%
O=C(Nc1ccc(Cl)cc1)Nc1ccc(N2CCCC2)c(S(=O)(=O)Nc2ccccc2Cl)c1	5%	-11%	5.2µM*	5.2µM*	10%
CCOC(=O)C(=CNc1ccc(N2CCCCC2)c(S(=O)(=O)Nc2ccccc2OC)c1)C(=O)OCC	x	2%	3.7µM*	5.8µM*	x
Cc1cc(C)c(NC(=O)CCN2CCCCC2)c(C)c1	-4%[12.3 µM]	x	2%	1%	-4%
COC(=O)c1sccc1S(=O)(=O)Nc1ccc(N2CCCCC2)cc1	8%	-2%	u	16µM*	4%
CCN(CC)c1ccc(NC(=O)c2ccccc2)cc1S(=O)(=O)Nc1ccccc1OC	0%	5%	u	16µM*	18%
COc1ccccc1NS(=O)(=O)c1cc(NC(=O)Nc2cccc(C)c2)ccc1N1CCCCC1	3%	4%	15µM*	9.2µM*	23%
COC(=O)c1sccc1S(=O)(=O)Nc1ccc(S(N)(=O)=O)cc1	6%	3%	1%	-3%	-5%
COc1ccc(NC(=O)c2ccccc2)cc1NS(=O)(=O)c1ccc(F)cc1	-3%	1%	1%	-16%	-5%
COc1ccc2c(c1)-c1nc(-n3ncc(C(=O)N(C)CC4CCCN(C)C4)c3C3CC3)ncc1CC2 (stereo not drawn)	x	x	16%	-12%	x
COC(=O)c1ccc(C(c2c(C)[nH][nH]c2=O)c2c(C)[nH][nH]c2=O)cc1	x	5%	-10%	-28%	5%
COC(=O)c1cccc(-c2ccc(C(c3c(C)[nH][nH]c3=O)c3c(C)[nH][nH]c3=O)o2)c1	9%	-5%	7.3µM*	23µM*	-7%
COC(=O)c1ccccc1-c1ccc(C(c2c(C)[nH][nH]c2=O)c2c(C)[nH][nH]c2=O)o1	-3%	-6%	u	21µM*	5%
Cc1[nH][nH]c(=O)c1C(c1ccc(-c2ccc(Cl)c(C(=O)O)c2)o1)c1c(C)[nH][nH]c1=O	u	2%	-12%	-9%	-1%
CN(c1ncnc2onc(-c3cccc(Cl)c3)c12)C1CCCCC1	4%	x	u	23µM*	-21%
Fc1ccccc1N1CCN(c2ncnc3onc(-c4cccc(Cl)c4)c23)CC1	4%	x	u	u	12%
Cc1cccc(Nc2ncnc3onc(-c4cccc(Cl)c4)c23)c1	x	-27%	21µM*	u	-9%

# Sorted by count of non-hydrogen atoms (high to low): four of the compounds above.
structure	TDP1 block	uPA generation	TDP1 cell CPT	DT40 TDP1 no CPT	miR-21 reporter
CCOC(=O)C(=CNc1ccc(N2CCCCC2)c(S(=O)(=O)Nc2ccccc2OC)c1)C(=O)OCC	x	2%	3.7µM*	5.8µM*	x
COc1ccc2c(c1)-c1nc(-n3ncc(C(=O)N(C)CC4CCCN(C)C4)c3C3CC3)ncc1CC2 (stereo not drawn)	x	x	16%	-12%	x
O=C(Nc1ccc(Cl)cc1)Nc1ccc(N2CCCC2)c(S(=O)(=O)Nc2ccccc2Cl)c1	5%	-11%	5.2µM*	5.2µM*	10%
COc1ccc(-c2nc(CS(=O)CC(=O)NCc3ccccc3OC)c(C)o2)cc1 (stereo not drawn)	6%	x	-11%	-22%	-1%

# Continuation.
structure	TDP1 block	uPA generation	TDP1 cell CPT	DT40 TDP1 no CPT	miR-21 reporter
Clc1cccc(-c2noc3ncnc(Nc4ccc5c(c4)OCO5)c23)c1	x	-22%	-28%	u	-20%
O=C(CSc1nccn1Cc1ccccc1)Nc1ccccc1	6%	5%	-20%	-25%	-20%
O=C(c1c(F)cccc1F)N1CCCC(c2nc(-c3ccc(F)cc3)no2)C1 (stereo not drawn)	x	-10%	23µM*	16µM*	-4%
O=S(=O)(c1ccc(F)cc1)N1CCCC(c2nc(-c3ccc(F)cc3)no2)C1 (stereo not drawn)	x	5%	u	u	x
CC(C)CNC(=S)N1CCC(c2nc(-c3ccc(F)cc3)no2)CC1	5%	7%	21µM*	21µM*	25%
O=C(c1ccccc1-c1nc(-c2ccc(F)cc2)no1)N1CCCC1	-3%	-7%	u	23µM*	-18%
O=S(=O)(Cc1ccccc1)N1CCCC(c2nc(-c3ccc(F)cc3)no2)C1 (stereo not drawn)	-8%	x	-26%	18µM*	-3%
COCCNC(=S)N1CCC(c2nc(-c3ccc(N(C)C)cc3)no2)CC1	-2%	u	-23%	u	-6%
